The source of these data is ChEMBL document CHEMBL1130119, “2-Carbomethoxy-3-aryl-8-oxabicyclo[3.2.1]octanes: potent non-nitrogen inhibitors of monoamine transporters” (J Med Chem, 1997).

Protein sequences, listed by entry. Tags and fused reporters are not part of them.
UniProt P31645, whole entry: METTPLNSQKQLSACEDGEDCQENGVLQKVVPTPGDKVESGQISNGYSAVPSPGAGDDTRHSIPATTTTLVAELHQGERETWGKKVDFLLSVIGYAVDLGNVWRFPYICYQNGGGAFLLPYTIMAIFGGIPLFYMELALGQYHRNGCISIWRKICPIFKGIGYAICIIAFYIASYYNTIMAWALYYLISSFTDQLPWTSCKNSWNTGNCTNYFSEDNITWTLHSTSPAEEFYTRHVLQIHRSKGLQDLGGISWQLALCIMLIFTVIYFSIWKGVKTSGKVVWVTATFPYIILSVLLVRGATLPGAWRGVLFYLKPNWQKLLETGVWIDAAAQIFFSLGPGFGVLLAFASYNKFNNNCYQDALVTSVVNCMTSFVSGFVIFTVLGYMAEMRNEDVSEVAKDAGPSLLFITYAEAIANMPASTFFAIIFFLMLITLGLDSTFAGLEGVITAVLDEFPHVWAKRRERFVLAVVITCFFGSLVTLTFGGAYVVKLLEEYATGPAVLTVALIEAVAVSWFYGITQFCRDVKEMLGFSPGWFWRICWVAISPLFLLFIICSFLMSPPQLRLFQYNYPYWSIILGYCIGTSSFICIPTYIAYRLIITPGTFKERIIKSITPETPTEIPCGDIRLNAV

For this experiment, the target named is Sodium-dependent serotonin transporter (Homo sapiens, UniProt P31645). Nature of the experiment: Inhibition of [3H]citalopram binding to the serotonin transporter (5-HT) in monkey caudate-putamen. The experiment is classed as tissue-based, Cercopithecidae. The settings on record: target entry is the homologue from another species.

On to `COC(=O)[C@@H]1C2CC[C@H](C[C@@H]1c1ccccc1)N2C` (stereo in doubt; 18a), for which the IC50 was 2 µM.

`COC(=O)C1C(c2ccc(Cl)cc2)CC2CCC1N2C` (stereo in doubt; 19c) returned an IC50 of 0.998 µM.

The IC50 is the concentration that inhibits the measured activity by half.
